The source of these data is ChEMBL document CHEMBL5518218, “Discovery of Novel PD-L1 Small-Molecular Inhibitors with Potent In Vivo Anti-tumor Immune Activity” (J Med Chem, 2024).

By UniProt entry, the sequences of proteins in these tests, tags left out.
UniProt Q15116, whole entry: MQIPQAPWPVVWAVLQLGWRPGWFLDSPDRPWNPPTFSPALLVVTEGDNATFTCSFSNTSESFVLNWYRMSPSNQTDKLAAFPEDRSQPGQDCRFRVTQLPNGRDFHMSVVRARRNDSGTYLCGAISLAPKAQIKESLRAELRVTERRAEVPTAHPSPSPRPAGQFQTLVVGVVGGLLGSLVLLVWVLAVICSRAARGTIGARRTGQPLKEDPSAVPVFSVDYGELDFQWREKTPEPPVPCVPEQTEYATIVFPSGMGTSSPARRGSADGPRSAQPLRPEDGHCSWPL

Activity calls are given as the source filed them. No cut-off for these calls is given here.

The assay concerns the target Programmed cell death protein 1 (Homo sapiens) (UniProt Q15116). The experiment in a line: Inhibition of human PD-1 expressed in Jurkat T cells co-transfected with NFAT by automated microplate spectrophotometer analysis. The class given is cell-based.

With `CCN(CC)C(=O)CCOc1cccc(-c2cccc(COc3cc(OCc4ccc5nonc5c4)c(CN[C@H](CO)C(=O)O)cc3Cl)c2Cl)c1`, the inhibition result was “inactive”.
